For two molecules, Antibiotic susceptibility, MRSA strains resistant and MIC80 results are on record in patent US12502362B2, “Inhibitors of nucleotidyltransferase superfamily enzymes as antibiotics” (priority 2017, dated 2025).

Some results are limits rather than exact numbers.

The test system of experiment [1] is Coagulase negative Staphylococcus. As to the kind of experiment: Antibiotic susceptibility of coagulase negative Staphylococcus strains. The experiment is classed as cell-based.
Experiment [2] deals with S. aureus ATCC strains and MRSA. The experiment is classed as cell-based, Staphylococcus aureus. Conditions: number of resistant strains out of 21 MRSA strains.
Another experiment concerns Klebsiella pneumoniae. As to the kind of experiment: microbe, parasite or virus in culture. Format: cell-based.
In experiment [3] the test system is Acinetobacter baumannii (Abl, from a patient). As to the kind of experiment: microbe, parasite or virus in culture. Format: cell-based. Conditions: read-out: MIC80 A. baumannii.
The next experiment relates to Morganella morganii. As to the kind of experiment: microbe, parasite or virus in culture. The experiment is classed as cell-based.
Another experiment relates to MDR Enterobacteriaceae. As to the kind of experiment: organism not typed. The experiment is classed as cell-based. Particulars: read-out: MIC80 on MDR Enterobacteriaceae.

Consider `CCC[C@@H]1C[C@@H](C(=O)N[C@@H]([C@H]2O[C@H](SC)[C@H](O)[C@@H](O)[C@H]2O)[C@H](C)Cl)N(C)C1` [CLI, clindamycin], for which the Antibiotic susceptibility result in experiment [1] (CNS1 (Coagulase negative Staphylococcus)) is “R”; in experiment [1] (CNS2 (Coagulase negative Staphylococcus)), “S”. For the same molecule, in experiment [2], the MRSA strains resistant is reported as 12/21.

On to `O=c1cccccc1S` [Compound 363], for which the MIC80 against Klebsiella pneumoniae (Klebsiella pneumoniae) is greater than 33.3 µM; in the experiment with Klebsiella pneumoniae (Kp6 (Klebsiella pneumonia)) it was greater than 33.3 µM; in experiment [3], greater than 100 µM; against Morganella morganii, greater than 33.3 µM; in the experiment with MDR Enterobacteriaceae it was no more than 20 µM.
